Reference: patent US5085739A, “Separation of the propyl alcohols from water by azeotropic or extractive distillation” (priority 1991, dated 1992)

Experiment: vapor-liquid equilibrium still, n-propanol-water azeotrope with agent
Conditions: n-propanol from water, extractive distn., water as overhead

- Relative Volatility: 1.43
Substance: Dipropylene glycol methyl ether
